{"source": "patent US20040214798A1", "about": "(priority 2003, published 2004)", "key": {"F179 cells": {"system": "F179 cells", "test": "Antiproliferative assay in vector-only control V79 cells (F179), SRB", "conditions": "read-out: IC50 F179, 72 hours drug exposure"}, "hDT7 cells": {"system": "hDT7 cells", "conditions": "read-out: IC50 hDT7; 72 hours drug exposure; human NQO1-expressing cells"}, "T116 cells": {"system": "T116 cells", "conditions": "72 hours drug exposure"}}, "data": [{"smiles": "O=[N+]([O-])c1ccc2c(c1)OP(=O)(N(CCCl)CCCl)OC2", "note": "(stereo not shown)", "values": [{"measurement": "IC50", "setting": "F179 cells", "value": "> 100", "unit": "µM"}, {"measurement": "IC50", "setting": "hDT7 cells", "value": "> 100", "unit": "µM"}, {"measurement": "Ratio of IC50 values (F179/T116)", "setting": "T116 cells; 100 μM used where IC50 >100 μM", "value": ">36"}, {"measurement": "IC50", "setting": "T116 cells; read-out: IC50 T116, E. coli nitroreductase-expressing cells", "value": 2.7, "unit": "µM"}]}]}
